# Test results from US20160045503A1, “FORMULATIONS CONTAINING REVERSIBLE COVALENT COMPOUNDS” (PRINCIPIA BIOPHARMA INC., priority 2012, published 2016).
# Chains of the proteins cited; added tags and fusions are not shown. Lines headed by an entry give the natural chain unless they say otherwise; changes in a name come on top.
# UniProt Q06187: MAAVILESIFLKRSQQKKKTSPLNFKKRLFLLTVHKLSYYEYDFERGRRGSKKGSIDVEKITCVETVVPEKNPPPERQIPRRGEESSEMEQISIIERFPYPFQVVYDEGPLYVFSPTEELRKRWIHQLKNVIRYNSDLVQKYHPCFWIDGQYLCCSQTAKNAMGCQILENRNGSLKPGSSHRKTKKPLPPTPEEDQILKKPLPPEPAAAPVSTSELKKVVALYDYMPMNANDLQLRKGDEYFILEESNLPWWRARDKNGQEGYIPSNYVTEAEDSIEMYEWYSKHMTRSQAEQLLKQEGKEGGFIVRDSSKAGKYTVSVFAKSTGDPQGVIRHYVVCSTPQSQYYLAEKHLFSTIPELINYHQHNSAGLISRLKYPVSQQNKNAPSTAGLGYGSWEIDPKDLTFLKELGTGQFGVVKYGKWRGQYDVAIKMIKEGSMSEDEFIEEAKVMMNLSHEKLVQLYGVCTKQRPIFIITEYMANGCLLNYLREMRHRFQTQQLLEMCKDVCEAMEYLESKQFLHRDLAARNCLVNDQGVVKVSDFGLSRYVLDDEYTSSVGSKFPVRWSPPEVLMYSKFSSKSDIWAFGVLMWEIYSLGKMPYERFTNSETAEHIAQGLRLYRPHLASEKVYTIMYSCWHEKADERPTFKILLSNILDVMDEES
# Biological target: human recombinant Btk (Homo sapiens, UniProt Q06187)
# Test: Btk Enzymatic Activity Assay (Caliper-based kinase assay)
# Type: biochemical
# Details: human recombinant Btk 2 nM, ATP 40 uM, peptide substrate 1 uM, room temperature, 3 h
row,IC50 [nM],Structure (SMILES)
1,1,"CC(C)(N)C=C(C#N)C(=O)N1CCC[C@@H]1Cn1nc(-c2ccc(Oc3cccc(F)c3F)cc2F)c2c(N)ncnc21 [Cpd 104A, (R)-4-amino-2-(2-((4-amino-3-(4-(2,3-difluorophenoxy)-2-fluorophenyl)-1H-pyrazolo[3,4-d]pyrimidin-1-yl)methyl)pyrrolidine-1-carbonyl)-4-methylpent-2-enenitrile]"
2,3,"CC(C)C=C(C#N)C(=O)N[C@@H](C)Cn1nc(-c2ccc(Oc3ccccc3)cc2F)c2c(N)ncnc21 [Cpd 183B, (S)-N-(1-(4-amino-3-(2-fluoro-4-phenoxyphenyl)-1H-pyrazolo[3,4-d]pyrimidin-1H-yl)propan-2-yl)-2-cyano-4-methylpent-2-enamide]"
3,3.7,"N#CC(=C[C@@H]1CCCN1)C(=O)N1CCC[C@@H]1Cn1nc(-c2ccc(Oc3ccccc3)cc2F)c2c(N)ncnc21 [Cpd 186, 2-((R)-2-((4-amino-3-(2-fluoro-4-phenoxyphenyl)-1H-pyrazolo[3,4-d]pyrimidin-1-yl)methyl)pyrrolidine-1-carbonyl)-3-((S)-pyrrolidin-2-yl)acrylonitrile]"
